Binding of CDR-mutated scFvs to a peptide of the spike HR2 region

Target: peptide PDVDLGDISGINAS, taken from heptad repeat 2 (HR2) of SARS-CoV-2 spike.

The variants keep the light chain, the linker and the frameworks of Ab-14 (scFv order VH, a (GGGGS)3 linker, VL).
VH: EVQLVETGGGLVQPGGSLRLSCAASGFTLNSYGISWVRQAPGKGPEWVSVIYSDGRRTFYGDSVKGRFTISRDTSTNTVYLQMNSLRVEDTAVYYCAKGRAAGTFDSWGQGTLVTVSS
VL: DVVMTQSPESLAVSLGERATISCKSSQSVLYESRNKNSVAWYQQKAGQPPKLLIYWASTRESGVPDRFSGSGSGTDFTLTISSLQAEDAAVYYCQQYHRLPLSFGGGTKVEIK

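Phage display of a naive human antibody library on the peptide gave the parent. In library AAYL49, one, two or three CDR residues were substituted; doubles and triples were drawn at random. The assay is AlphaSeq: two haploid yeast populations carry antibody and antigen on their surface. Mating (16 h, 30 °C) was followed by selection of diploids and sequencing of their barcodes. Read counts were normalised to the haploid input and turned into Kd by a linear fit to BCL2-family pairs of known affinity, for each replicate. The assay was run in three technical replicates.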

The whole VH of each variant is written out. All variants listed here change G99 of the VH, counted from its first residue. Values are log10 of the apparent Kd in nM; lower means stronger binding. Where no diploid with the target was found in that replicate, the entry reads "nd": below detection, most likely a poor binder, though not proof of it. As a blank, each scFv also met three strains without target: over library AAYL49, 15% of these pairings were detected, typically at 4.06 and seldom below 2.83. For each scFv, signals with the empty controls are counted beside the result. For reference, the parent read 0.65 as the reference entry and 4.11 (one replicate of three) as a member of this library.

The variant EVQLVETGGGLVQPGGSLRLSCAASGFTLNSYGISWVRQAPGKGPEWVSVITSDGRRTFYGDSDKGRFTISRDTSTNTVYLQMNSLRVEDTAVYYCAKKRAAGTFDSWGQGTLVTVSS showed nd, 4.92, 5.14 (controls 4 of 9).
The variant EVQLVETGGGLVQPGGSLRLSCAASGFTLNSYGISWVRQAPGKGPEWVSVIYSDGRRTFYGDSVKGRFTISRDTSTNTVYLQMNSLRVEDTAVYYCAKSRAWTTFDSWGQGTLVTVSS showed 0.91, 0.93, 0.93 (controls 0 of 9).
The variant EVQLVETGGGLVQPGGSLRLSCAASGFTLNSYGISWVRQAPGKGPEWVSVNYSDVRRTFYGDSVKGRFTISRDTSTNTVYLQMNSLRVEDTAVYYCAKYRAAGTFDSWGQGTLVTVSS showed nd, nd, nd (controls 1 of 9).
The variant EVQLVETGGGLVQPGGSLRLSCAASLFTLNSYGISWVRQAPGKGPEWVSVIYHDGRRTFYGDSVKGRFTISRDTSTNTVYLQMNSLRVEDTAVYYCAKRRAAGTFDSWGQGTLVTVSS showed nd, 3.77, 4.60 (controls 1 of 9).
The variant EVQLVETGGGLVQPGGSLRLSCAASGFTKNSYGISWVRQAPGKGPEWVSVIYSDGRRTFYGDSWKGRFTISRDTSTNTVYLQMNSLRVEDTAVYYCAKTRAAGTFDSWGQGTLVTVSS showed nd, nd, nd (controls 1 of 9).
The variant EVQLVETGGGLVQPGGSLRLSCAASGFTLNSYGISWVRQAPGKGPEWVSVIYSDGRRTFIGDSVKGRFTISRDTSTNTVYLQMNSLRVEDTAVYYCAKDRAANTFDSWGQGTLVTVSS showed 4.74, nd, nd (controls 3 of 9).
The variant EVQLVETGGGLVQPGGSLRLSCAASGFTLNSYGISWVRQAPGKGPEWVSRIYSDGRRTFYGDSVKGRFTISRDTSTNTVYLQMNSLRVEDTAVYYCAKMRAAGTFDSWGQGTLVTVSS showed nd, nd, nd (controls 0 of 9).
The variant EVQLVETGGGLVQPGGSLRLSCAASGFTLNSYGISWVRQAPGKGPEWVSVIYSDGRRTFYGDSVKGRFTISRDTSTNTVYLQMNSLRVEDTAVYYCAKPRAAGTFDSWGQGTLVTVSS showed 5.13, 3.31, nd (controls 1 of 9).
The variant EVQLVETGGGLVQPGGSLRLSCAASGFTLNSYGITWVRQAPGKGPEWVSVIPSDGRRTFYGDSVKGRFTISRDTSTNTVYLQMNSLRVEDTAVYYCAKNRAAGTFDSWGQGTLVTVSS showed 6.49, 3.75, 4.93 (controls 5 of 9).
The variant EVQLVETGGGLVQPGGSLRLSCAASGFTLNSYGISWVRQAPGKGPEWVSEIYSDGRRGFYGDSVKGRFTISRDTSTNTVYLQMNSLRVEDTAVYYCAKLRAAGTFDSWGQGTLVTVSS showed 3.88, 2.84, 4.59 (controls 0 of 9).
The variant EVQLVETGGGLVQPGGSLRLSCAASGFTKNSYGISWVRQAPGKGPEWVSVIYSDGRRTFYGDRVKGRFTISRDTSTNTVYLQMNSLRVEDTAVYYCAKLRAAGTFDSWGQGTLVTVSS showed 4.14, 4.50, 3.67 (controls 0 of 9).
The variant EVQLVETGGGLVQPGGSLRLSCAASGFTRNSYGISWVRQAPGKGPEWVSVIYSWGRRTFYGDSVKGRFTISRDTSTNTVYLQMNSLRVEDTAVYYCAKQRAAGTFDSWGQGTLVTVSS showed nd, nd, nd (controls 2 of 9).
The variant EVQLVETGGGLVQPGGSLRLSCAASGWTLNSYGISWVRQAPGKGPEWVSVIYSDGRRTFNGDSVKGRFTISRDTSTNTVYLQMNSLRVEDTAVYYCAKSRAAGTFDSWGQGTLVTVSS showed nd, 3.82, 5.29 (controls 1 of 9).
The variant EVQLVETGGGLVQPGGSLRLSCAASGFTLNSYGISWVRQAPGKGPEWVSLIYSDGRRTFYGDSVKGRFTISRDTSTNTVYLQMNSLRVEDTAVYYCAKFLAAGTFDSWGQGTLVTVSS showed 4.48, nd, 6.74 (controls 6 of 9).
The variant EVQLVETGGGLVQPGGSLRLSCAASGFTLNSYGISWVRQAPGKGPEWVSVIYSDGWRTFYDDSVKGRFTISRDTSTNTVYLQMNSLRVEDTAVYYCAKSRAAGTFDSWGQGTLVTVSS showed nd, nd, 5.71 (controls 1 of 9).
The variant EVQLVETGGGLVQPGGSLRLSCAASGFTLNSYGNSWVRQAPGKGPEWVSVIYSDGRRTFYGDSVLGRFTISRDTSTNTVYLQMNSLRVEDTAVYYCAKRRAAGTFDSWGQGTLVTVSS showed 5.82, nd, nd (controls 4 of 9).
The variant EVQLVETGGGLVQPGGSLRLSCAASGFTLNSYGISWVRQAPGKGPEWVSVIYSDGDFTFYGDSVKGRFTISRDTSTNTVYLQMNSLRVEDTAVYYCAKRRAAGTFDSWGQGTLVTVSS showed nd, nd, nd (controls 0 of 9).
The variant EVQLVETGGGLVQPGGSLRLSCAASGFTLNSYGISWVRQAPGKGPEWVSVIQSDGRRTFYGDSVKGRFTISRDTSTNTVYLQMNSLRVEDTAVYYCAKQRKAGTFDSWGQGTLVTVSS showed nd, nd, nd (controls 0 of 9).
The variant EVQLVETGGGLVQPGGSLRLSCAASGFTQNSYGISWVRQAPGKGPEWVSVIYSDGRRTFIGDSVKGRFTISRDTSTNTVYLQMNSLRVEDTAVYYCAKIRAAGTFDSWGQGTLVTVSS showed nd, nd, 4.92 (controls 3 of 9).
The variant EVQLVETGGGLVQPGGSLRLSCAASGFTQNSYGISWVRQAPGKGPEWVSVIYEDGRRTFYGDSVKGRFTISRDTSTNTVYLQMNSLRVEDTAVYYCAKIRAAGTFDSWGQGTLVTVSS showed nd, nd, nd (controls 1 of 9).
The variant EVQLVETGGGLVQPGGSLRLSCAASGFTLNSYGISWVRQAPGKGPEWVSVIYSDGRRTFYGVSVKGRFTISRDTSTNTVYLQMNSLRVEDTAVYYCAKFRAAGCFDSWGQGTLVTVSS showed nd, nd, nd (controls 1 of 9).
The variant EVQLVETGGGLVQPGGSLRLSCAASGWTLNSYGISWVRQAPGKGPEWVSVIYSDGRLTFYGDSVKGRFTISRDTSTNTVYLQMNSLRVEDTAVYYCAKWRAAGTFDSWGQGTLVTVSS showed nd, nd, nd (controls 0 of 9).
The variant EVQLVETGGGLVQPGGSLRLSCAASGFTLNSYGISWVRQAPGKGPEWVSGIYSDGRRTRYGDSVKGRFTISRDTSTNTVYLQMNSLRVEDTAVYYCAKCRAAGTFDSWGQGTLVTVSS showed 5.80, 5.37, 5.17 (controls 6 of 9).
The variant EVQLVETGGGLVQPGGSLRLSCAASGFTLNSYGISWVRQAPGKGPEWVSVIYSDGRRTFYGDSVKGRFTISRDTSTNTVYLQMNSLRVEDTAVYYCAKRRAKTTFDSWGQGTLVTVSS showed 0.45, 0.69, 0.32 (controls 0 of 9).
The variant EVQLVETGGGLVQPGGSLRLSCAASGFTLNSYGISWVRQAPGKGPEWVSVIYSDGRRTFGGDSVFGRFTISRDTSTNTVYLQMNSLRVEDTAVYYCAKIRAAGTFDSWGQGTLVTVSS showed nd, nd, nd (controls 0 of 9).

Extract of 4 entries:

VH	log10 Kd (nM) by replicate	empty controls
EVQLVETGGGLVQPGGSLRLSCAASGFTKNSYGISWVRQAPGKGPEWVSVIYSDGRRTFYGDRVKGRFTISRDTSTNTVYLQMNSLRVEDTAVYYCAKLRAAGTFDSWGQGTLVTVSS	4.14, 4.50, 3.67	0 of 9
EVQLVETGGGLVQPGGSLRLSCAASGFTKNSYGISWVRQAPGKGPEWVSVIYSDGRRTFYGDSWKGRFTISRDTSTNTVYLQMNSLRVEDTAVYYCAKTRAAGTFDSWGQGTLVTVSS	nd, nd, nd	1 of 9
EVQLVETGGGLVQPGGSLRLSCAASGFTLNSYGISWVRQAPGKGPEWVSVIYSDGRRTFYGDSVKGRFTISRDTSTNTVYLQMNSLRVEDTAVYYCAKPRAAGTFDSWGQGTLVTVSS	5.13, 3.31, nd	1 of 9
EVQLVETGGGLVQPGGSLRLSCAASGFTLNSYGISWVRQAPGKGPEWVSVNYSDVRRTFYGDSVKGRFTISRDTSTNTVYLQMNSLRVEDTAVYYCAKYRAAGTFDSWGQGTLVTVSS	nd, nd, nd	1 of 9

Source: Engelhart et al. 2022 (doi:10.1038/s41597-022-01779-4), MIT Lincoln Laboratory and A-Alpha Bio; data file from the FLAb repository.